Test results: patent US7166588B2 (priority 2000, dated 2007)

By UniProt entry, the sequences of proteins in these tests, tags left out. Residues count along the entry.
UniProt P22303, 32-614 limits assumed: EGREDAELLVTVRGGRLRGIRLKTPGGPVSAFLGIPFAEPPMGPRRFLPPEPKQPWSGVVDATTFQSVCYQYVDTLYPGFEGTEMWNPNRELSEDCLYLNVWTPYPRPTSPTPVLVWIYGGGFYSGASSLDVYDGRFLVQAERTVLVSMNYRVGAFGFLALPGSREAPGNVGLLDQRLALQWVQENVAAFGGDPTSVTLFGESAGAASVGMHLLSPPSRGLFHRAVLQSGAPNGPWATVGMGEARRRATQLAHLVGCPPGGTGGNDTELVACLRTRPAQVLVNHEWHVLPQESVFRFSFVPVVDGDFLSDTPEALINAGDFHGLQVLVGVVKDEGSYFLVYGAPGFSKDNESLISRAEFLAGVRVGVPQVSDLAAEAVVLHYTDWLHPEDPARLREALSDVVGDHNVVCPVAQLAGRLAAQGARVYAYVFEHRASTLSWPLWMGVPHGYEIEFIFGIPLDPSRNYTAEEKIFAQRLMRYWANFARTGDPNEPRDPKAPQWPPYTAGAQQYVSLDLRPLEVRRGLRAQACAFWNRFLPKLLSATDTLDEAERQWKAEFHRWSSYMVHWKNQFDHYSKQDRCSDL

Molecular target: acetylcholinesterase (AChE), human recombinant (Homo sapiens, UniProt P22303)
Test: biochemical
Details: human recombinant enzyme; pre-incubation of the enzyme with inhibitor; read-out: IC50 (AChE, mE, hr)

COc1ccc2c3c1O[C@@H]1CC(O)C=CC31CCC(C)C2 (stereo partly shown) [SPH-1310]
IC50: 5.3 µM
